Reference: ChEMBL document CHEMBL4680122, “Design, synthesis and biological evaluation of new Axl kinase inhibitors containing 1,3,4-oxadiazole acetamide moiety as novel linker” (Eur J Med Chem, 2020)

What was measured:
[1] = species on record: Homo sapiens; assay: Selectivity ratio of IC50 for inhibition of human N-terminal GST-fused FLT3 cytoplasmic domain (564 to 993 residues) expressed in baculovirus expression system to IC50 for inhibition of human N-terminal GST-fused Axl cytoplasmic domain (464 to 885 residues) expressed in baculovirus expression system
[2] = species on record: Homo sapiens; assay: Selectivity ratio of IC50 for inhibition of human His-tagged PDGFRB cytoplasmic domain expressed in baculovirus expression system to IC50 for inhibition of human N-terminal GST-fused Axl cytoplasmic domain (464 to 885 residues) expressed in baculovirus expression system
[3] = species on record: Homo sapiens; assay: Selectivity ratio of IC50 for MER (unknown origin) to IC50 for inhibition of human N-terminal GST-fused Axl cytoplasmic domain (464 to 885 residues) expressed in baculovirus expression system
[4] = species on record: Homo sapiens; assay: Selectivity ratio of IC50 for TYRO3 (unknown origin) to IC50 for inhibition of human N-terminal GST-fused Axl cytoplasmic domain (464 to 885 residues) expressed in baculovirus expression system

Measured: Ratio IC50

COc1cc2c(Oc3ccc(NC(=O)C4(c5nnc(-c6ccc(F)cc6)o5)CC4)cc3F)ccnc2cc1OCCCN1CCCCC1
> 10: [1] | [2] | [3] | [4]
